{"sequences": {"note": "The chains behind the UniProt entries cited, without tags or fusion partners. Residues count along the entry.", "UniProt Q05941, 23-502 limits assumed": "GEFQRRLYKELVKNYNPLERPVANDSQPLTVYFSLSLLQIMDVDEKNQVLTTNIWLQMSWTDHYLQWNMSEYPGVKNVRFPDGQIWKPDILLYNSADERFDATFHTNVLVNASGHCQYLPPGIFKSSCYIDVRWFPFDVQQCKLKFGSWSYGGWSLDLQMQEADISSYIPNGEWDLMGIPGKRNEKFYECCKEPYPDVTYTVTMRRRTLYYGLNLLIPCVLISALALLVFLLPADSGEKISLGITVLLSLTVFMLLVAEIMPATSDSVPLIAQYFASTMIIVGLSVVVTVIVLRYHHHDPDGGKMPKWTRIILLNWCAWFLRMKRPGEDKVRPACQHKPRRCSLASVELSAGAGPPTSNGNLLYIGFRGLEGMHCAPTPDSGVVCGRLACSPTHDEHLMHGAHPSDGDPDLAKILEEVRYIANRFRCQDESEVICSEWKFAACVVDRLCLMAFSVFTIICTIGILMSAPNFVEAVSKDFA"}, "source": "patent US9458179B2", "about": "“Quinuclidine, 1-azabicyclo[2.2.1]heptane, 1-azabicyclo [3.2.1]octane, and 1-azabicyclo[3.2.2]nonane compounds as alpha-7 nicotinic acetylcholine receptor ligands” (BRISTOL-MYERS SQUIBB COMPANY, priority 2012, dated 2016)", "biological_target": "α-7 nicotinic ACh receptor ion channel (Rattus norvegicus, UniProt Q05941)", "experiment": "Ca2+-sensitive fluorescence-based FLIPR assay of α7 nicotinic receptor channel function (agonist activity)", "assay_type": "cell-based", "conditions": "read-out: FLIPR α7-HI (EC50), HEK 293 cells, Ca2+ flux, tested form: TFA", "note": "pEC50: −log10 of the molar value. Like-named read-outs stand apart in the source and are kept apart here.", "data": [{"smiles": "COc1cc(NC2=NCC3(CN4CCC3CC4)N2)ncn1", "note": "(centres unmarked)", "values": [{"measurement": "pEC50", "setting": "Table 1, activity class", "result": "6.00 to 7.00"}, {"measurement": "pEC50", "result": 6.06}]}]}
